From patent publication US6365373 (Genentech, dated 2002) come the findings set out here.

Residue numbers refer to the chain shown, from its start.

First the molecules themselves.
B1: NGF124 (ligand)
chain: SSSHPIFHRGEFSVCDSESLWVTDKTTATDIKGKEVMVLGEVNINNSVFKQYFFETKCRDPNPVDSGCRGIDSKHWNSQCKTTQTYVKALTMDGKQAAWRFIRIDTACVCVLSRKAVRRA
B2: NGF126 (ligand)
chain: B1 chain with Q79Y
B3: NGFR1 (ligand)
chain: B1 chain with T23G, Q79Y, Y86F

This assay addresses T1, human trkA receptor immunoadhesin (trkA extracellular domain fused to immunoglobulin constant domains) (human, UniProt P04629 33-423).
T1 construct: extracellular domain; not shown: immunoglobulin constant domains
Nature of the assay: competitive displacement of labeled NGF from human trkA immunoadhesin, 96-well plate.
Turning to B1, the IC50mut/IC50NGF was determined as 1.1 ratio.
For B2 the value was 1.6 ratio; for B3, 1.1 ratio.
